Screening data: PubChem BioAssay, several laboratories
PGC1a acetyl inh: lowers PGC1a acetylation signal in U2OS cells; inhibition, % at 15.6 µM; AlphaScreen anti-acetyl-lysine; with virally co-expressed GCN5 acetyltransferase; AID 651687; 0.17% of 350,000 active;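 active means every replicate shows inhibition of at least 40%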;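 further: 0% = neutral control wells and 100% = positive control wells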
iPSC survival up: enhancers of human iPSC single-cell survival; hiPSC single-cell survival, ATPlite luminescence; 100% = ROCK inhibitor wells, 0% = DMSO; survival enhancement, % at 20 µM; 0.044% of 360,000 active; AID 602274; in the data active means survival enhancement above about 18%;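 further: cells exposed to compounds for 16 hours before the ATP read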
FN deposition inh: fibronectin deposition inhibition | AH1F fibroblasts, Alexa488-fibronectin deposition fluorescence, overnight | inhibition, % at 12.6 µM | 0.086% of 350,000 active;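 active means mean inhibition across replicates of 30% or more, regardless of how many single replicates reach that level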;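 further: positive control wells lacked labelled fibronectin entirely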
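material = AH1F fibroblast monolayer depositing Alexa488-labelled fibronectin into matrix | amount = 10000 AH1F cells/well | buffer or medium = DMEM plus 2% serum, read in PBS | incubation = 1 h cell adhesion before compound, then overnight fibronectin incubation | detection = fluorescence at 485 nm excitation, 525 nm emission | evaluation = percent inhibition as loss of matrix-bound fibronectin fluorescence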
C2C12 statin: suppressors of simvastatin-induced myotoxicity in C2C12 myotubes; ATP luminescence, 48 h; scaled: DMSO 0, geranylgeraniol control 100; rescue of ATP level, % at 7.49 µM; 0.78% of 330,000 active;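 active means mean ATP rescue above about 67%, or every replicate alone reaching that limit, limit read from the data, passing the limit was not always enough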;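 further: myotubes were challenged with 10 µM simvastatin during compound exposure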
UUG fidelity: modulators of yeast start codon fidelity, primary screen, whole organism, S. cerevisiae, single point, plate reader | AID 602363, 2012 | S. cerevisiae UUG-firefly luciferase reporter, luminescence/redox ratio | activity score, % at 18.7 µM | hit rate 0.13% among 350,000;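 active = replicate mean at a twofold rise or more, about +100% in these data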;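 also: firefly luciferase made from a UUG start codon reports start codon fidelity; reporter light over untreated wells divided by growth signal over untreated wells; some hits fall short of that in this replicate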
Active calls of the source: *; / = no result given. Rows were chosen to be rich in hits. Some 0.91% of all compounds tested hit in one or more screens of this group.

Field names: A = PGC1a acetyl inh; B = iPSC survival up; C = FN deposition inh; D = C2C12 statin; E = UUG fidelity
SMILES: COc1ccc(/C=N\NC(=O)c2ccc(F)cc2)cc1COc1ccccc1C(N)=O
  A: / | B: 2 | C: / | D: -11 | E: -9

SMILES: CCc1nc(N2[C@H](CO)[C@H](c3ccccc3-c3ccc(F)cc3)[C@@H]2C#N)sc1C
  A: / | B: / | C: 2 | D: / | E: /

SMILES: COCC(=O)Nc1ccc2c(c1)C(=O)N(C)[C@@H]1CC[C@@H](CC(=O)NCc3ccccc3Cl)O[C@H]1CO2
  A: 6 | B: / | C: 38* | D: 26 | E: 17

SMILES: CN1C(=O)c2cc(NS(=O)(=O)c3ccc(Cl)cc3)ccc2OC[C@@H]2O[C@H](CC(=O)N3CCc4ccccc4C3)CC[C@H]21
  A: -18 | B: / | C: 5 | D: 109* | E: 10

SMILES: COCC(=O)Nc1ccc2c(c1)C(=O)N(C)[C@H]1CC[C@H](CC(=O)NCc3ccccc3Cl)O[C@H]1CO2
  A: -6 | B: / | C: 2 | D: -24 | E: 9

SMILES: CN1C(=O)c2cc(NS(=O)(=O)c3ccc(Cl)cc3)ccc2OC[C@@H]2O[C@@H](CC(=O)N3CCc4ccccc4C3)CC[C@@H]21
  A: -2 | B: / | C: -6 | D: 40 | E: 7

SMILES: COc1cccc(-c2ccc([C@H]3[C@@H](CO)N4C(=O)CN(C(=O)C5CCCCC5)C[C@@H]34)cc2)c1
  A: -16 | B: / | C: / | D: / | E: /

SMILES: O=C(NN=C1c2ccccc2-c2ccccc21)c1ccccc1Br
  A: 66* | B: -4 | C: / | D: 2 | E: -4

SMILES: COCC(=O)Nc1ccc2c(c1)OC[C@@H](C)N(Cc1cccnc1)C[C@@H](C)[C@H](OC)CN(C)C2=O
  A: -4 | B: / | C: 0 | D: / | E: /

SMILES: N=c1sccn1CC(=O)Nc1ccccc1Sc1ccccc1
  A: 73* | B: 2 | C: 1 | D: -5 | E: /

SMILES: COc1ccc(NC(=O)c2cnn(-c3ccccc3)c2C)cc1
  A: / | B: -1 | C: 7 | D: -10 | E: -5

SMILES: COc1ccc(CN2CCn3ncc(C(=O)Nc4ccccc4)c3C2=O)cc1
  A: 129* | B: 14 | C: / | D: / | E: /

SMILES: COc1cccc(S(=O)(=O)Nc2ccc3c(c2)[C@H]2C[C@H](CC(=O)NC4CCCCC4)O[C@@H](CO)[C@H]2O3)c1
  A: -8 | B: / | C: 4 | D: -4 | E: /

SMILES: CO[C@@H]1CN(C)C(=O)c2ccc(NS(=O)(=O)c3cccc(Cl)c3)cc2OC[C@H](C)NC[C@@H]1C
  A: 18 | B: / | C: -1 | D: 1 | E: /

SMILES: O=C(/C=C/c1ccccc1Cl)Nc1cccc(S(=O)(=O)NC2=NCCCCC2)c1
  A: / | B: -1 | C: -1 | D: / | E: /

Exported field by field: 2 of the compounds above.
COc1cccc(S(=O)(=O)Nc2ccc3c(c2)[C@H]2C[C@H](CC(=O)NC4CCCCC4)O[C@@H](CO)[C@H]2O3)c1
  PGC1a acetyl inh: -8; iPSC survival up: /; FN deposition inh: 4; C2C12 statin: -4; UUG fidelity: /

COc1ccc(CN2CCn3ncc(C(=O)Nc4ccccc4)c3C2=O)cc1
  PGC1a acetyl inh: 129*; iPSC survival up: 14; FN deposition inh: /; C2C12 statin: /; UUG fidelity: /

The list goes on.
Field names: A = PGC1a acetyl inh; B = iPSC survival up; C = FN deposition inh; D = C2C12 statin; E = UUG fidelity
SMILES: O=C(/C=C/c1ccc(Cl)cc1Cl)Nc1cccc(S(=O)(=O)NC2=NCCC2)c1
  A: -10 | B: -3 | C: 33* | D: / | E: /

SMILES: CCNC[C@H]1[C@@H](c2ccc(C3=CCCC3)cc2)[C@@H](CO)N1C(=O)C1CCCC1
  A: / | B: / | C: 8 | D: / | E: /

SMILES: CC1OC2CC(=O)OC2C2=C1C(=O)c1c(O)cccc1C2=O (stereo unspecified)
  A: 78* | B: 0 | C: / | D: -305 | E: -78

SMILES: O=C(c1cnc2n(c1=O)CCS2)N1CCN(C(c2ccccc2)c2ccc(Cl)cc2)CC1 (stereo unspecified)
  A: -24 | B: 0 | C: / | D: 76* | E: -20

SMILES: O=C(Nc1ccc(F)cc1)N[C@@H]1C[C@@H]2O[C@@H](CO)CC[C@@H]2O[C@@H]1CCc1ccc(-c2ccccc2)cc1
  A: 6 | B: / | C: / | D: / | E: /

SMILES: COc1cc(N2C(=O)C=CC2=O)c(OC)cc1Cl
  A: -21 | B: 1 | C: 35* | D: / | E: -54

SMILES: COc1cc(Cl)c(S(=O)(=O)N2CCCC2)cc1Cl
  A: / | B: 0 | C: 4 | D: / | E: /

SMILES: COc1ccccc1-c1cnc2c(c1)C(=O)N([C@@H](C)CO)C[C@@H](C)[C@H](CN(C)C(=O)c1ccccc1)O2
  A: -3 | B: / | C: -10 | D: 2 | E: 4

SMILES: CC(C)NC(=O)N1[C@H](CO)[C@@H](c2ccccc2)[C@H]1CN(C)C(=O)c1ccncc1
  A: 12 | B: / | C: -19 | D: 2 | E: -16

SMILES: CCOC(=O)C1=C(C)NC(=O)NC1c1ccc(OC)c(CN2CCOCC2)c1 (stereo unspecified)
  A: 2 | B: 0 | C: / | D: 79* | E: -15

SMILES: CCOCc1cc(C2NC(=O)NC(C)=C2C(=O)OCC)ccc1OC (stereo unspecified)
  A: 1 | B: -5 | C: / | D: 9 | E: -8

SMILES: Cc1onc(-c2ccccc2)c1C(=O)OCC(=O)Nc1ccc2c(c1)OCO2
  A: 1 | B: -1 | C: 3 | D: 102* | E: -2

SMILES: Cc1onc(-c2ccccc2Cl)c1C(=O)OCC(=O)Nc1ccc2c(c1)OCO2
  A: -2 | B: -1 | C: / | D: / | E: -8

SMILES: Cc1cc(C(=O)CSc2nnnn2-c2ccccc2)c(C)n1CCc1ccccc1
  A: -4 | B: -2 | C: -10 | D: 107* | E: -11

SMILES: COc1ccc(CCn2c(C)cc(C(=O)CSc3nnnn3-c3ccccc3)c2C)cc1OC
  A: 4 | B: -3 | C: / | D: -49 | E: -4

3 entries from above, ordered by the value under PGC1a acetyl inh, highest first:
| mol | PGC1a acetyl inh |
| --- | --- |
| CC(C)NC(=O)N1[C@H](CO)[C@@H](c2ccccc2)[C@H]1CN(C)C(=O)c1ccncc1 | 12 |
| Cc1cc(C(=O)CSc2nnnn2-c2ccccc2)c(C)n1CCc1ccccc1 | -4 |
| O=C(c1cnc2n(c1=O)CCS2)N1CCN(C(c2ccccc2)c2ccc(Cl)cc2)CC1 (stereo unspecified) | -24 |

Following part
Field names: A = PGC1a acetyl inh; B = iPSC survival up; C = FN deposition inh; D = C2C12 statin; E = UUG fidelity
SMILES: COc1ccc(CN(C)C[C@H]2OCCCC[C@@H](C)Oc3ccc(NC(=O)CCCN(C)C)cc3C(=O)N([C@@H](C)CO)C[C@H]2C)cc1
  A: -11 | B: / | C: / | D: -28 | E: 17

SMILES: COc1ccc(CCN2C(=O)CCC2(C)C(=O)NCc2cccnc2)cc1OC (stereo unspecified)
  A: 21 | B: -1 | C: -14 | D: 22 | E: -11

SMILES: COc1ccc(CN2C(=O)CCC2(C)C(=O)NCc2cccnc2)c(OC)c1 (stereo unspecified)
  A: -11 | B: -1 | C: / | D: 92* | E: 4

SMILES: COc1ccc(S(=O)(=O)N(C)C[C@@H]2OCCCC[C@@H](C)Oc3ccc(NS(=O)(=O)c4cn(C)cn4)cc3C(=O)N([C@@H](C)CO)C[C@@H]2C)cc1
  A: 2 | B: / | C: 8 | D: / | E: /

SMILES: CCN(CC)C(=O)c1sc(N)c(C(=O)OC(C)C)c1C
  A: 7 | B: 2 | C: -7 | D: 1 | E: 10

SMILES: CCN(CC)C(=O)c1sc(NC(=O)C(Sc2ccccc2)c2ccccc2)c(C(=O)OC(C)C)c1C (stereo unspecified)
  A: 5 | B: 0 | C: / | D: 101* | E: -1

SMILES: C[C@H]1CN([C@@H](C)CO)C(=O)c2cccc(NS(C)(=O)=O)c2O[C@@H]1CN(C)C(=O)NC1CCCCC1
  A: 5 | B: / | C: / | D: -12 | E: 0

SMILES: Cc1[nH]nc2c1C(=O)CC(C)(C)C2
  A: -13 | B: 3 | C: / | D: -11 | E: -13

SMILES: Cc1[nH]nc2c1/C(=N\O)CC(C)(C)C2
  A: 11 | B: 0 | C: / | D: 101* | E: -7

SMILES: COc1cccc(S(=O)(=O)NCc2ccc(C(=O)Nc3ccc(C)cc3)cc2)c1
  A: -1 | B: 0 | C: / | D: 95* | E: -20

SMILES: COc1ccc(NC(=O)c2ccc(CNS(=O)(=O)c3cccc(OC)c3)cc2)cc1
  A: 8 | B: -2 | C: / | D: -27 | E: -8

SMILES: O=C(CC1Nc2ccccc2NC1=O)Nc1ccc2c(c1)OCO2 (stereo unspecified)
  A: 2 | B: 0 | C: 34* | D: -1 | E: /

SMILES: O=C(Nc1ccc2c(c1)[C@@H]1C[C@H](CC(=O)N3CCc4ccccc4C3)O[C@@H](CO)[C@@H]1O2)NC1CCCC1
  A: -19 | B: / | C: / | D: 7 | E: -18

SMILES: O=C(O)c1cc(C(=O)C2CC2)c[nH]1
  A: 13 | B: 23* | C: 6 | D: / | E: /

SMILES: CC(C)CC#Cc1ccc2c(c1)O[C@H](CN(C)Cc1ccccn1)[C@@H](C)CN([C@H](C)CO)S2(=O)=O
  A: -6 | B: / | C: -15 | D: -33 | E: -15

SMILES: CC(C)Sc1nc2c(c(=O)[nH]c(=O)n2C)n1Cc1ccc(Cl)cc1
  A: 9 | B: -2 | C: / | D: 149* | E: 0

SMILES: CC(C)Sc1nc2c(c(=O)[nH]c(=O)n2C)n1Cc1ccccc1
  A: -1 | B: 2 | C: 6 | D: 10 | E: -2

SMILES: CCOC(=O)C(C)Sc1nc2c(c(=O)[nH]c(=O)n2C)n1Cc1ccc(Cl)cc1 (stereo unspecified)
  A: / | B: -2 | C: 5 | D: 1 | E: 0
